Chains of the proteins cited; added tags and fusions are not shown.
UniProt Q08881, whole entry, species assumed: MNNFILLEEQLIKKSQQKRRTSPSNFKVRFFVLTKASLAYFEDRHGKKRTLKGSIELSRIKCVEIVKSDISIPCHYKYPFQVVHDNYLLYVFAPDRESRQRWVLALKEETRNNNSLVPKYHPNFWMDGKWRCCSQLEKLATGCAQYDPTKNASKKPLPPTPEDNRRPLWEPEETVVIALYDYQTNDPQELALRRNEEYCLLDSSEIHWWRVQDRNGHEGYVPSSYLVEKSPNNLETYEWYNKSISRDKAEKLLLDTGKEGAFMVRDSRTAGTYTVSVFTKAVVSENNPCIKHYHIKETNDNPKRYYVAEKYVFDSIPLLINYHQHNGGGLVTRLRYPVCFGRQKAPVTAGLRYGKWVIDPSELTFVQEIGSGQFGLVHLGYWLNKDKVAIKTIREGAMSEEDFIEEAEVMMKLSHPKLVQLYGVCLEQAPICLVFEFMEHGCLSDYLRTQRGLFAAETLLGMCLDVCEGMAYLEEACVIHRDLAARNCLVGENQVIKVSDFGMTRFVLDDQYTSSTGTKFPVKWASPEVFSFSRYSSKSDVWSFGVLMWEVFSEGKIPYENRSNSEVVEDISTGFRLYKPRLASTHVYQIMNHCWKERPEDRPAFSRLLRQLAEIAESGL

According to patent US20190167694A1, “NEW THERAPEUTICS USES” (NOVARTIS AG, priority 2016, published 2019):

Molecular target: ITK (Homo sapiens, UniProt Q08881)

SMILES: Cc1cc(C(=O)Nc2nc3cccc(Cl)c3n2[C@@H]2CCCCN(C(=O)/C=C/CN(C)C)C2)ccn1 [COMPOUND A, (R,E)-N-(7-chloro-1-(1-(4-(dimethylamino)but-2-enoyl)azepan-3-yl)-1H-benzo[d]imidazol-2-yl)-2-methylisonicotinamide]
- IC50, ITK biochemical: single digit nM potency
